# Experimental data reported in patent US12029739B2, “SHP2 inhibitor and use thereof” (KANAPH THERAPEUTICS INC., priority 2021, dated 2024).
# By UniProt entry, the sequences of proteins in these tests, tags left out.
# UniProt Q06124, whole entry: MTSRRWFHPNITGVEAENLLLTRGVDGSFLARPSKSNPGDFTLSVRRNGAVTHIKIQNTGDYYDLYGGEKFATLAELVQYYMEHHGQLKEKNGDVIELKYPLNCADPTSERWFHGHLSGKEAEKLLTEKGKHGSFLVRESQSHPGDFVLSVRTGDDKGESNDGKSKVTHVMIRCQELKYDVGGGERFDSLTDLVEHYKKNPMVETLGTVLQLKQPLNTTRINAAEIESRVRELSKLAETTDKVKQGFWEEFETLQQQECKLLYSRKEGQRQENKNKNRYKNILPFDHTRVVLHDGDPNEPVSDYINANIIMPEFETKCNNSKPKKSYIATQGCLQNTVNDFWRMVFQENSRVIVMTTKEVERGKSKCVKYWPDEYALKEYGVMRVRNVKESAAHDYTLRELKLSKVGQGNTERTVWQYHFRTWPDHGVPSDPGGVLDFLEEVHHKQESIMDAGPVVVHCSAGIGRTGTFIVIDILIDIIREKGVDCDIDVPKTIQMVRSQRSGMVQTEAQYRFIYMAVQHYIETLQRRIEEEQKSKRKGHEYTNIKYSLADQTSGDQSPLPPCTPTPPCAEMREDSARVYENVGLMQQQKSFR
# Tests used:
# [1] = molecular target: SHP2 (full length) (Homo sapiens, UniProt Q06124); assay: Phosphatase assay (PTPase assay) with DiFMUP substrate; assay type: biochemical; conditions: read-out: IC50 (PTPase aS say); SHP2 activated with SHP2 activating peptide; DiFMUP 80 μM, 2 hours; fluorescence
# [2] = tested on: phospho-ERK in MIA PaCa2 or H358 cells; assay: Phospho-ERK assay (AlphaLisa); assay type: cell-based; conditions: read-out: IC50 (p-ERK), compound incubated 1.5 hours
smiles,measurement,setting,value
C[C@@H]1OCC2(CCN(c3cnc4c(Sc5ccc6ncn(CC7CCOC7)c(=O)c6c5Cl)n[nH]c4n3)CC2)[C@@H]1N (some centres unmarked),IC50,[1],< 3 nM
same,IC50,[2],45 to 1500 nM
